Measured values reported in patent US8033977B2, “Methods of enhancing radiation effects with metal nanoparticles” (NanoProbes, Inc., priority 1998, dated 2011).

Key:
[1] = test system: A431 cells; assay: Uptake of gold-antibody conjugate into A431 cells (atomic absorption); format: cell-based
Experimental: (§1) An anti-Epidermal Growth Factor receptor (EGFr) antibody, MAb225, was expressed in cell culture, then purified by protein A column chromatography. […] The antibody was checked for purity by gel electrophoresis and its activity was verified by targeting to A431 cells using 15 nm colloidal gold antibody conjugates and silver enhancement. A431 cells, which highly express EGFr, and a control cell line with low expression of EGFr, MCF7, were cultured. Gold-antibody conjugates were added to the growth medium and 2 days later, the medium was changed and more gold-antibody was added. […] On the fifth day, A431 cells were highly loaded with gold.
The amount of gold uptake into the cells was quantified by atomic absorption spectroscopy. A431 cells after the above regimen contained 0.55% gold by weight. Such a level would be enough to have a major effect on the absorbed x-ray dose.

[2] = test system: MCF7; assay: Uptake of gold-antibody conjugate into control cell line MCF7; format: cell-based; conditions: control cell line with low expression of EGFr
Experimental: as §1

[3] = test system: A431 cells; assay: X-ray dose enhancement in gold-loaded A431 cells, metabolic cell viability test; format: cell-based; conditions: 250 kVp x-rays, 0-16 Gray
Experimental: A431 cells were targeted with the gold nanoparticle-anti-EGFr antibody conjugate as described in Example 1. The cells were then washed several times and resuspended in fresh medium, then aliquots of cell suspension were exposed to 250 kVp x-rays with doses between 0 and 16 Gray. A431 cells not exposed to gold nanoparticles were similarly irradiated and used as controls. After irradiation, cells were plated and grown for one week. A metabolic cell viability test was then done to determine the surviving fraction. […] The dose enhancement factor was therefore 4.5.

[4] = test system: Her2+ (BT-474) and Her2− (MCF-7) tumors; assay: Gold biodistribution in mice bearing Her2+ and Her2− tumors (atomic absorption); format: in vivo; conditions: 20 hours after i.v. injection, 1.1 g Au/kg, nude mice
[5] = test system: Her2+ tumor; assay: MicroCT of gold at the tumor periphery in mice bearing Her2+ and Her2− tumors; format: in vivo

| Substance | gold uptake into the cells ([1]; A431 cells, fifth day, atomic absorption spectroscopy) [% gold by weight] | cell growth, cells exposed vs not exposed to gold ([1]; gold-antibody in growth medium) | visible uptake of colloidal gold [2] | cell survival vs cells without gold [3] | dose enhancement factor ([3]; dose required to kill one-half of the cells vs cells without gold) | Au % id/g, Muscle [4] [% id/g] | average amount of gold in periphery region ([5]; Her2+ tumor, microCT) [% gold by weight] | projected x-ray dose enhancement factor ([5]; at 140 kVp, from 0.45% gold by weight) | delivery to tumor periphery region ([5]; regions with greater than 0.18% gold by weight, Her2+ tumor, microCT) [% id/g] |
| --- | --- | --- | --- | --- | --- | --- | --- | --- | --- |
| gold nanoparticle-anti-EGFr antibody conjugate: 15 nm colloidal gold conjugated to anti-Epidermal Growth Factor receptor (EGFr) antibody MAb225 | 0.55 | No differences in cell growth | did not show any visible uptake | lower survival at all doses | 4.5 |  |  |  |  |
| Herceptin-AuNP: Herceptin (an antibody specific for Her2) coupled to 15 nm gold nanoparticles using a crosslinking reagent |  |  |  |  |  | 0.44 ± 0.05 | 0.45 | ~1.7 | 16.4 |
